# Values of other authors, collected in US20070237810A1, “Biocidal fibrous and film materials comprising silver and chlorite ions” (published 2007).
# Like-named read-outs stand apart in the source and are kept apart here.
Compound,"E^0NHE (Ag^+oo/Agoo^H2O) (bulk silver, H2O, in presence of the complexing agent)",redox potential E^ONHE (Ag^+n/Agn) (n=1),redox potential E^ONHE (Ag^+n/Agn) (n=10),redox potential E^ONHE (Ag^+n/Agn) (n=600)
O=S(O)(O)=S,+0.010,,,
silver ion,,−1.6 V,0 V,+0.799 V
